According to EP1439177B1, “Antiviral activity and resolution of 2-hydroxymethyl-5-(5-fluorocytosin-1-yl)-1,3-oxathiolane” (Emory University, priority 1991, dated 1992):

Experiments:
[1] = individual monkeys RUh, RMi, RJd
in vivo = settings: rhesus monkey, 33.3 mg/kg

For Nc1nc(=O)n([C@@H]2CS[C@H](CO)O2)cc1F (racemic) [(±)-FTC, (±)-β-D.L-2-hydroxymethyl-5-(5-fluorocytosin-1-yl)-1,3-oxathiolane], which t1/2 ([1]; I.V. 33.3 mg/kg) is on record?
The t1/2 was 1.22 h and 1.47 h.

And the t1/2 ([1]; P.O. 33.3 mg/kg)?
Its t1/2 is 1.08 h and 1.47 h.

What about the half-life (in vivo; in vivo, iv, t1/2, I.V. 33.3 mg/kg, Mean of three monkeys) of the same compound?
Its half-life is 1.32 h.

And the half-life (in vivo; in vivo, iv, t1/2, I.V. 33.3 mg/kg, individual monkeys RUh, RMi, RJd)?
The half-life was 1.28 h.

And the half-life (in vivo; in vivo, po, t1/2, P.O. 33.3 mg/kg, Mean of three monkeys)?
Its half-life is 1.38 h.

And the half-life (in vivo; in vivo, po, t1/2, P.O. 33.3 mg/kg, individual monkeys RUh, RMi, RJd)?
Its half-life is 1.58 h.

What about the half-life (in vivo; plasma, plasma terminal half life, rhesus monkeys, mean of oral and I.V. administration) of the same compound?
Its half-life is roughly 1.34 h.

Values joined by “and” are separate entries in the source; they are usually repeats but may differ in a detail not shown here. Equal values may be shown once. Read-outs that look alike come from different tables or passages of the source.
